In patent US11046743B2 (Antaros Medical AB, priority 2015, dated 2021) one finds EC50 data, which are given here for three compounds.

The chains behind the UniProt entries cited, without tags or fusion partners. Residues count along the entry.
UniProt P43220, 24-463: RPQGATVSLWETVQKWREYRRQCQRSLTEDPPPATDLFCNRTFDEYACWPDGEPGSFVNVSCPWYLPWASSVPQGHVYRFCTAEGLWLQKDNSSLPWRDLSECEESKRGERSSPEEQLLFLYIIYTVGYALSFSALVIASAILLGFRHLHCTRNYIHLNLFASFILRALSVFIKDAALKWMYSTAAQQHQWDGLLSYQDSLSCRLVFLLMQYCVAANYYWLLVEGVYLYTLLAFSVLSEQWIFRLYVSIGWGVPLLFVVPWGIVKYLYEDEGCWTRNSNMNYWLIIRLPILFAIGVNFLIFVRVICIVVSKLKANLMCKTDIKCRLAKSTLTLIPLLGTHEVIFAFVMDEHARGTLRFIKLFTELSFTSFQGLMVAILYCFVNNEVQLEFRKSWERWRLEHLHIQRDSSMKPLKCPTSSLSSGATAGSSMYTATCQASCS
UniProt P47871, 26-477: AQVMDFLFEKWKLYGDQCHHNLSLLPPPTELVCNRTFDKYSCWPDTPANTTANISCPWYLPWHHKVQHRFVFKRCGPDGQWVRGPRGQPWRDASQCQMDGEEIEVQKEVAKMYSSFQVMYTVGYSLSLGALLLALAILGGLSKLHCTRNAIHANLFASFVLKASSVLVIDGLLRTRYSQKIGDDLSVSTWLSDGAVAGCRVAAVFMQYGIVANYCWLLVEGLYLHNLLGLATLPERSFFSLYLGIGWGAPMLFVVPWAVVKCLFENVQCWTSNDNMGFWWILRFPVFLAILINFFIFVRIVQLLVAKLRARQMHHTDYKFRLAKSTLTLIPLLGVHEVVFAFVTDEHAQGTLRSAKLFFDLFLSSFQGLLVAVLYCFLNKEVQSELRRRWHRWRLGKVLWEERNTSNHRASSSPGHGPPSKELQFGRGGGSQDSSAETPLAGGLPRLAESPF

SMILES strings stand for the structures.

Experiment [1] has as its target T1, human GLP-1 receptor (hGLP-1 R) (Homo sapiens, UniProt P43220).
T1 construct: expressed in transfected cells; host or cells: HEK-293
The experiment can be described thus: cAMP response (HTRF) of HEK-293 cells stably expressing human GLP-1 receptor. Type of experiment: cell-based. (Time-resolved FRET reads energy transfer from a long-lived donor to a nearby acceptor.)

The target of experiment [2] is T2, human glucagon receptor (hGLUC R) (Homo sapiens, UniProt P47871).
T2 construct: expressed in transfected cells; host or cells: HEK-293
The experiment can be described thus: cAMP response (HTRF) of HEK-293 cells stably expressing human glucagon receptor. Type of experiment: cell-based.

Turning to `CCCC[C@H](NC(=O)[C@H](CCC(N)=O)NC(=O)[C@H](CCCCN)NC(=O)[C@H](CO)NC(=O)[C@H](CC(C)C)NC(=O)[C@H](CC(=O)O)NC(=O)[C@H](CO)NC(=O)C(C)(C)NC(=O)[C@H](Cc1ccccc1)NC(=O)[C@@H](NC(=O)CNC(=O)[C@H](CCC(N)=O)NC(=O)[C@H](CO)NC(=O)[C@@H](N)Cc1cscn1)[C@@H](C)O)C(=O)N[C@@H](CCC(=O)O)C(=O)N[C@@H](CO)C(=O)N[C@@H](CCCNC(=N)N)C(=O)N[C@@H](CCCNC(=N)N)C(=O)N[C@@H](C)C(=O)N[C@@H](CCC(N)=O)C(=O)N[C@@H](CC(=O)O)C(=O)N[C@@H](Cc1ccccc1)C(=O)N[C@H](C(=O)N[C@@H](CCC(=O)O)C(=O)N[C@@H](Cc1c[nH]c2ccccc12)C(=O)N[C@@H](CC(C)C)C(=O)N[C@@H](CC(C)C)C(=O)N[C@@H](C)C(=O)N[C@H](C(=O)NCC(=O)N1CCC[C@H]1C(=O)N[C@@H](CCC(=O)O)C(=O)N[C@@H](CO)C(=O)NCC(=O)N[C@@H](C)C(=O)N1CCC[C@H]1C(=O)N1CCC[C@H]1C(=O)N1CCC[C@H]1C(=O)N[C@@H](CO)C(=O)N[C@@H](CSCCS(=O)(=O)CCN1CCN(CC(=O)O)CCN(CC(=O)O)CCN(CC(=O)O)CC1)C(N)=O)[C@@H](C)O)[C@@H](C)CC` [compound 13], the 50% effective concentration (EC50) was determined as 143 nM in experiment [1] and 0.0048 nM in experiment [2].
Turning to `CC[C@H](C)[C@H](NC(=O)[C@H](Cc1ccccc1)NC(=O)[C@H](CCC(=O)O)NC(=O)[C@H](CCC(N)=O)NC(=O)[C@H](C)NC(=O)[C@H](CCCNC(=N)N)NC(=O)[C@H](CCCNC(=N)N)NC(=O)[C@H](CO)NC(=O)[C@H](CCC(=O)O)NC(=O)[C@H](CSCCS(=O)(=O)CCN1CCN(CC(=O)O)CCN(CC(=O)O)CCN(CC(=O)O)CC1)NC(=O)[C@H](CCC(N)=O)NC(=O)[C@H](CCCCN)NC(=O)[C@H](CO)NC(=O)[C@H](Cc1ccc(O)cc1)NC(=O)[C@H](CC(=O)O)NC(=O)[C@H](CO)NC(=O)[C@@H](NC(=O)[C@H](Cc1ccccc1)NC(=O)[C@@H](NC(=O)CNC(=O)[C@H](CCC(N)=O)NC(=O)[C@H](CO)NC(=O)[C@@H](N)Cc1cscn1)[C@@H](C)O)[C@@H](C)O)C(=O)N[C@@H](CCC(=O)O)C(=O)N[C@@H](Cc1c[nH]c2ccccc12)C(=O)N[C@@H](CC(C)C)C(=O)N[C@@H](CC(C)C)C(=O)N[C@@H](C)C(=O)NCC(=O)NCC(=O)N1CCC[C@H]1C(=O)N[C@@H](CCC(=O)O)C(=O)N[C@@H](CO)C(=O)NCC(=O)N[C@@H](C)C(=O)N1CCC[C@H]1C(=O)N1CCC[C@H]1C(=O)N1CCC[C@H]1C(=O)N[C@@H](CO)C(N)=O` [compound 39], the figures for the concentration for a half-maximal effect (EC50) in experiment [1] and in experiment [2] were 14.1 nM and 0.0266 nM, respectively.
Consider `CC[C@H](C)[C@H](NC(=O)[C@H](Cc1ccccc1)NC(=O)[C@H](CCC(=O)O)NC(=O)[C@H](CCC(N)=O)NC(=O)[C@H](C)NC(=O)[C@H](CCCNC(=N)N)NC(=O)[C@H](CSCCS(=O)(=O)CCN1CCN(CC(=O)O)CCN(CC(=O)O)CCN(CC(=O)O)CC1)NC(=O)[C@H](CO)NC(=O)[C@H](CCC(=O)O)NC(=O)[C@H](CC(C)C)NC(=O)[C@H](CCC(N)=O)NC(=O)[C@H](CCCCN)NC(=O)[C@H](CO)NC(=O)[C@H](Cc1ccc(O)cc1)NC(=O)[C@H](CC(=O)O)NC(=O)[C@H](CO)NC(=O)[C@@H](NC(=O)[C@H](Cc1ccccc1)NC(=O)[C@@H](NC(=O)CNC(=O)[C@H](CCC(N)=O)NC(=O)[C@H](CO)NC(=O)[C@@H](N)Cc1cscn1)[C@@H](C)O)[C@@H](C)O)C(=O)N[C@@H](CCC(=O)O)C(=O)N[C@@H](Cc1c[nH]c2ccccc12)C(=O)N[C@@H](CC(C)C)C(=O)N[C@@H](CC(C)C)C(=O)N[C@@H](C)C(=O)NCC(=O)NCC(=O)N1CCC[C@H]1C(=O)N[C@@H](CCC(=O)O)C(=O)N[C@@H](CO)C(=O)NCC(=O)N[C@@H](C)C(=O)N1CCC[C@H]1C(=O)N1CCC[C@H]1C(=O)N1CCC[C@H]1C(=O)N[C@@H](CO)C(N)=O` [compound 41], for which the results for the concentration giving a half-maximal response (EC50) in experiment [1] and in experiment [2] were 4.06 nM and 0.0026 nM, respectively.

By EC50 is commonly meant the concentration at which the effect is half-maximal. The low end stands for higher potency in that assay, the high end for lower potency in that assay.
